Ab-95 light chain CDR variants: yeast mating affinities

From the AlphaSeq antibody data of Engelhart et al. 2022 (doi:10.1038/s41597-022-01779-4), copy in the FLAb collection.

Target: peptide PDVDLGDISGINAS, taken from heptad repeat 2 (HR2) of SARS-CoV-2 spike.

Parent scFv Ab-95: VH joined to VL by the linker GGGGSGGGGSGGGGS. Changes lie in the light chain CDRs alone.
VH: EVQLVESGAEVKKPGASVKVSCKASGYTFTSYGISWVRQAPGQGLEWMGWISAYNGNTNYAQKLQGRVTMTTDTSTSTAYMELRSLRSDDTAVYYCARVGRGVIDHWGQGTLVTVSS
VL: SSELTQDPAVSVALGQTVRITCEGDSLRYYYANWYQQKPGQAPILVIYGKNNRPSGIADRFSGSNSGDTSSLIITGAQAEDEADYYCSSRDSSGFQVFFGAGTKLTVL

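Phage display of a naive human antibody library on the peptide gave the parent. Library AAYL52 holds single substitutions and randomly drawn double and triple substitutions in the CDRs. The assay is AlphaSeq: two haploid yeast populations carry antibody and antigen on their surface. Mating (16 h, 30 °C) was followed by selection of diploids and sequencing of their barcodes. Read counts were normalised to the haploid input and turned into Kd by a linear fit to BCL2-family pairs of known affinity, for each replicate. Mating was done three times.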

Substitutions are numbered in sequence along the VL above, starting at 1 (not Kabat).
The read-out is the apparent dissociation constant on a log10 scale (nM): the lower, the stronger.
An entry "ND" has no value in the source: the pair was not observed among the diploids in that replicate. This suggests poor binding but is not conclusive.
Empty control strains, which show no peptide, gave a signal in 28% of pairings with library AAYL52; the median was 3.91 and 95% of these signals were weaker than 2.90. No background was subtracted. The control count says in how many pairings with the empty strains this scFv gave a signal, with their mean in brackets.

changes	log10 Kd, replicates	signal with controls
N33C R53A P54G	ND / 4.55 / ND	1/9 (3.51)
L27I N52T D91A	4.74 / 4.51 / 3.16	2/9 (3.25)
N33S S55M F95Q	4.67 / 3.76 / 4.25	2/9 (5.13)
A32D N51V F98H	ND / ND / 3.81	2/9 (3.39)
S26W K50M F95M	3.79 / 3.97 / 4.34	6/9 (4.14)
K50N S88Y S89A	2.15 / 1.89 / 2.30	3/9 (3.60)
Y30F R90V	ND / ND / ND	2/9 (4.15)
Y30N Y31L P54G	1.70 / 1.50 / 1.23	2/9 (4.14)
S26A R53K	2.13 / 2.35 / 1.93	2/9 (3.72)
D25R Y29P D91P	3.01 / 2.67 / 3.04	5/9 (3.59)
N51M R90M S92Q	ND / ND / ND	0/9
L27V A32E R53M	4.44 / ND / 3.25	0/9
S92M S93Y	3.41 / 3.07 / 2.77	0/9
Y30G A32C	0.82 / 0.88 / 0.59	0/9
R28D S92V Q96L	2.69 / 3.92 / 2.80	4/9 (3.65)
G94K Q96E V97N	ND / ND / ND	2/9 (2.96)
E23G R28F G94M	5.08 / 3.74 / ND	1/9 (3.74)
R28Q N33R S55Q	ND / 2.64 / ND	3/9 (4.13)
E23K D25A Y29P	2.76 / 2.69 / 2.28	5/9 (3.73)
D25H S26I S92L	ND / ND / ND	1/9 (3.71)
A32C F98D	5.29 / 3.97 / ND	1/9 (2.62)
Y30F S88L G94S	2.68 / 3.90 / 3.16	6/9 (3.90)
G24R S55W S92Q	ND / 4.24 / ND	0/9
D25T N33G G94P	3.51 / ND / 3.76	6/9 (4.24)
S89V D91E	ND / ND / ND	2/9 (4.65)
P54E S93E Q96M	ND / ND / 3.25	1/9 (3.06)
L27S N33I S89K	2.78 / 3.47 / ND	3/9 (4.19)
R90N G94W F98S	ND / ND / ND	2/9 (2.53)
S26R Y31L A32F	ND / 4.52 / ND	2/9 (5.29)
D25T R53T S55W	4.48 / 4.05 / 3.56	2/9 (3.75)
K50H P54E	2.91 / 2.43 / 2.73	2/9 (3.88)
Y30W N51F S92E	5.23 / ND / 3.17	3/9 (4.42)
E23M S89I G94Y	2.79 / 2.69 / 3.44	2/9 (3.87)
Y29D Q96C	2.72 / 2.48 / 2.76	3/9 (3.14)
G24R S88R D91Y	3.79 / ND / ND	2/9 (3.32)
E23Q R90E Q96R	4.17 / 3.40 / ND	1/9 (3.33)
L27G R53A S92F	ND / ND / ND	1/9 (3.41)
L27G G49F D91R	ND / 4.73 / ND	5/9 (3.58)
G94P F98G	1.99 / 2.09 / 1.97	3/9 (4.00)

The 3 strongest on average among those seen in every replicate, once more:

changes	log10 Kd, replicates	signal with controls
Y30G A32C	0.82 / 0.88 / 0.59	0/9
Y30N Y31L P54G	1.70 / 1.50 / 1.23	2/9 (4.14)
G94P F98G	1.99 / 2.09 / 1.97	3/9 (4.00)